53 molecules from PubChem BioAssay AID2014 (Sanford-Burnham Center for Chemical Genomics, 2009) can be followed below.

Sequences of proteins named here, by UniProt entry; tags and fusion partners are left off.
UniProt P11940, whole entry: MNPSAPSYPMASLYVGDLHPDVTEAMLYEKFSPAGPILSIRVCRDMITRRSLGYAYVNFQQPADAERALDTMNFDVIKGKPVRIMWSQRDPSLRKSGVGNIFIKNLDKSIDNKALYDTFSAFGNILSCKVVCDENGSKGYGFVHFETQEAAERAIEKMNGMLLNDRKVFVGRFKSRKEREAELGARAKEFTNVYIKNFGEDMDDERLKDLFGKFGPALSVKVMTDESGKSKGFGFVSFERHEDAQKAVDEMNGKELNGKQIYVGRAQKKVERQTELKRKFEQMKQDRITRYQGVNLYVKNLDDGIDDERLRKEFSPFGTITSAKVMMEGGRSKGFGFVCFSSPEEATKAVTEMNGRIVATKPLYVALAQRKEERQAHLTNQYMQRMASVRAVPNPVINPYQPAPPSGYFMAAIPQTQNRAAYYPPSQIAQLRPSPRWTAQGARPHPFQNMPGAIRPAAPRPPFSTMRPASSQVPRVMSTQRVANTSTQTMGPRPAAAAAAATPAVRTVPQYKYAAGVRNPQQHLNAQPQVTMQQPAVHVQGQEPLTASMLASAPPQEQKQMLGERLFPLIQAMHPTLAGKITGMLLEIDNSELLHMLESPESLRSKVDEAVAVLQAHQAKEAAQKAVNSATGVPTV

Values joined by “and” are separate entries in the source; they are usually repeats but may differ in a detail not shown here. Equal values may be shown once. The list shows a part of the results, in another mix than the full data. Active and inactive are the calls of the source. The rule behind the calls is not given here.

This assay has as its target Polyadenylate-binding protein 1 (Homo sapiens) (UniProt P11940). In words: PABP poly(A) RNA binding inhibitors, primary screen, biochemical, fluorescence polarization, uHTS (AID 2014). Conditions: at 35 µM, hits give high values.
A word on the inhibition: it is the relative decrease from the control value, in per cent. For the molecule `CCc1nc2c(n1)c1c(non1O)c1c2no[n+]1[O-]`, the inhibition was inactive: 7%.
With `CC(=O)N1C2C3N(C(C)=O)C1C1N(C(C)=O)C(C(N1C(C)=O)N3C(C)=O)N2C(C)=O` the figure was inactive: 48%; with `O=[N+]([O-])c1cccc2n[nH]nc12`, inactive: -7.3%.
With `COc1ccccc1OP(C)(=O)Nc1c(C)n(C)n(-c2ccccc2)c1=O` (stereo not drawn) the figure was inactive: -9.9%.
With `O=C(OCCCN1CCCC1)C(O)(c1ccccc1)C1CCCCC1` (stereo not drawn) the figure was inactive: 8.7%.
For the molecule `CCN(/C(=N/P(=O)(N1CCOCC1)N1CCOCC1)N1CCOCC1)c1ccc(OC)cc1`, the inhibition is inactive: -1.5%.
To `CP(=O)(Nc1ccc(Cl)cc1)Oc1ccc(F)cc1` (stereo not drawn) belongs inactive: -7.9%.
In the case of `COc1ccccc1OP(C)(=O)Nc1ccccc1Br` (stereo not drawn), the inhibition was inactive: 9.7%.
Turning to `Nc1ccc([As](=O)(O)c2ccc(N)cc2)cc1`, the inhibition was inactive: 13.1%.
To `CC(C)(C)c1ccc(OP(C)(=O)O)cc1` belongs inactive: 5.1%.
With `CC1CCN(C(=O)Oc2c(Cl)cc(Cl)c3cccnc23)CC1` the figure was inactive: 2.3%; with `CC(C)=N/N=C(\N)N[N+](=O)[O-]`, inactive: -5.9%.
To `CN(C)C(=O)c1c([N+](=O)[O-])cc([N+](=O)[O-])cc1[N+](=O)[O-]` belongs inactive: 0.5%; to `CN(C)C(=O)OCCc1n(C)cc[n+]1C`, inactive: -14.1%; to `CP(=O)(OC12CC3CC(CC(C3)C1)C2)OC12CC3CC(CC(C3)C1)C2`, inactive: 0.2%.
As to `CCOC(=O)c1ccc(NP(C)(=O)Oc2ccc(Cl)cc2)cc1` (stereo not drawn), the inhibition was inactive: -6.5%.
With `O=C(Nc1cc([As](=O)(O)O)ccc1O)c1ccccc1` the figure was inactive: 11.7%; with `O=[N+]([O-])c1ncn(CCn2ncnc2[N+](=O)[O-])n1`, inactive: 5.1%; with `CC(C)(C)C(=O)NC(Sc1ccncn1)C(Cl)(Cl)Cl` (stereo not drawn), inactive: 3.6%.
Take `O=C(O)CNc1ccc([As](=O)(O)O)cc1`: the inhibition is inactive: 12.1%.
For the molecule `O=[N+]([O-])c1cccc(NC2=NCC(CBr)S2)c1` (stereo not drawn), the inhibition was inactive: 7.3%.
To `O=P(Nc1nc2ccc(Cl)cc2s1)(c1ccccc1)c1ccccc1` belongs inactive: 4.1%; to `Cc1cc(C)cc(OP(C)(=O)Nc2cccc(C(F)(F)F)c2)c1` (stereo not drawn), inactive: -4.8%; to `CC(=O)Nc1ccc([As](=O)(O)O)cc1`, inactive: -0.7%.
As to `O=C(O)c1ccccc1[As](=O)(O)O`, the inhibition was inactive: 6.9%.
For the molecule `COc1ccc(OP(C)(=O)Nc2ccccc2Br)cc1` (stereo not drawn), the inhibition is inactive: -5.9%.
To `Cc1cc(SC(NC(=O)c2ccc(F)cc2)C(Cl)(Cl)Cl)ncn1` (stereo not drawn) belongs inactive: 5.1%.
To `CCOP(=O)(Nc1ccccc1)OCC` belongs inactive: 3.2% and inactive: -0.9%.
To `COc1ccccc1OP(C)(=O)Nc1ccc(C)c(C)c1` (stereo not drawn) belongs inactive: -0.8%; to `Cc1ccc(NP(=O)(Oc2ccccc2F)Oc2ccccc2F)nc1`, inactive: -8.7%.
For `Cc1nc2ccc3ccccc3c2o1.O=[N+]([O-])c1cc([N+](=O)[O-])c(O)c([N+](=O)[O-])c1`, the inhibition is inactive: 6%.
With `CP(=O)(Nc1ccc(Cl)cc1Cl)Oc1ccccc1` (stereo not drawn) the figure was inactive: 2.2%; with `CP(=O)(OCCOc1ccccc1)OCCOc1ccccc1`, inactive: -2.4%.
To `CCN(N=Nc1nonc1N)c1nonc1N` belongs inactive: 0.7%.
As for `COc1ccccc1OP(C)(=O)Nc1ccc(Br)cc1` (stereo not drawn), the inhibition was inactive: 2.9%.
To `Cc1ccc(N/C(=N/P(=O)(N2CCOCC2)N2CCOCC2)N2CCOCC2)cc1` belongs inactive: -1.2%.
For `NC(=O)c1cc([N+](=O)[O-])cc([N+](=O)[O-])c1N`, the inhibition was inactive: 12.3%.
As to `CN1CCCC(OC(=O)C(c2ccccc2)c2ccccc2)C1` (stereo not drawn), the inhibition is inactive: 36%.
Regarding `CN(C)CCOC(=O)C(O)(c1ccccc1)C1CCCC1` (stereo not drawn), the inhibition is inactive: -0.5%.
To `Clc1ccc(Cl)c(NC2=NCC(CBr)S2)c1` (stereo not drawn) belongs inactive: 0.8%; to `COc1ccccc1OP(=O)(Nc1ccc(C)cn1)Oc1ccccc1OC`, inactive: 0.4%; to `COc1ccc(OP(C)(=O)Nc2ccccn2)cc1` (stereo not drawn), inactive: -4.8%.
With `Cc1ccc(OP(=O)(Nc2nccs2)Oc2ccc(C)cc2)cc1` the figure was inactive: -1.9%.
To `Oc1ccccc1CNc1ccccn1` belongs inactive: -2.4%.
`O=C(NC(Sc1ccncn1)C(Cl)(Cl)Cl)c1ccccc1` (stereo not drawn): the inhibition was inactive: -6.5%.
With `Cc1c2non([O-])c-2c(C)[n+](=O)[n+]1[O-]`, the inhibition is inactive: 5.2%.
To `Nc1cc(N)c2nonc2c1[N+](=O)[O-]` belongs inactive: 18.2%; to `Cc1c(NP(C)(=O)Oc2ccc(C(C)C)cc2)c(=O)n(-c2ccccc2)n1C` (stereo not drawn), inactive: -3.1%.
Regarding `O=[N+]([O-])c1cc([N+](=O)[O-])c(Nc2ccccn2)c([N+](=O)[O-])c1`, the inhibition was inactive: -0.4%.
To `CC(C)CC(=O)NC(Sc1ccc(Cl)cc1)C(Cl)(Cl)Cl` (stereo not drawn) belongs inactive: -8%.
With `CCc1ccc(OP(C)(=O)O)cc1` the figure was inactive: -13.9%; with `CP(=O)(Nc1ccccn1)Oc1ccccc1` (stereo not drawn), inactive: 1.7%.
For `COc1ccccc1OP(C)(=O)Nc1ccc(C)cc1C` (stereo not drawn), the inhibition is inactive: 2.9%.
